# Values quoted from earlier work, collected in patent US8354374B2, “Peptides having pharmacological activity for treating disorders associated with altered cell migration, such as cancer” (Pharmaphelix S.R.L., priority 2006, dated 2013).
# Tested on: rat
# Settings: in vivo; cited from earlier work
substance,measurement,value
Kisspeptin-54,adverse effect of long-term administration,atrophy of the gonads
